ChEMBL document CHEMBL5579834 (Eur J Med Chem, 2024)

Test: Drug uptake in human skin fibroblast lysosomes assessed as fold change in corrected total cell fluorescence at 50 uM measured after 2 hrs by LysoTracker Red DND-99 dye based laser scanning confocal microscopy relative to control
Type: ADME, subcellular, Lysosome

`CC1(C)[C@H]2CC[C@](C)(C2)[C@H]1OC(=O)CCN1CCOCC1` gave a fold change (FC) of 0.76.

`C[C@@H]1[C@H]2C[C@@H](C[C@H]1OC(=O)CCN1CCN(C)CC1)C2(C)C` showed a fold change (FC) of 0.39.

Compound `CN1CCN(CCCC(=O)O[C@H]2C(C)(C)[C@H]3CC[C@]2(C)C3)CC1` has a fold change (FC) of 0.44.

In the case of `C[C@@H]1[C@H]2C[C@@H](C[C@H]1OC(=O)CN1CCN(C)CC1)C2(C)C`, the fold change (FC) is reported as 0.39.

In the case of `CC1(C)[C@H]2CC[C@](C)(C2)[C@H]1OC(=O)CCCN1CCCCC1`, the fold change (FC) is reported as 0.32.

`CN1CCN(CC(=O)O[C@H]2C(C)(C)[C@H]3CC[C@]2(C)C3)CC1` showed a fold change (FC) of 0.31.
